Source: patent US20260125400A1, “TYK2 DEGRADERS AND USES THEREOF” (Kymera Therapeutics, Inc., priority 2023, published 2026)
Read-outs that look alike come from different tables or passages of the source.

Amino acid sequences for entries named in this document (tags omitted).
UniProt P29597, whole entry: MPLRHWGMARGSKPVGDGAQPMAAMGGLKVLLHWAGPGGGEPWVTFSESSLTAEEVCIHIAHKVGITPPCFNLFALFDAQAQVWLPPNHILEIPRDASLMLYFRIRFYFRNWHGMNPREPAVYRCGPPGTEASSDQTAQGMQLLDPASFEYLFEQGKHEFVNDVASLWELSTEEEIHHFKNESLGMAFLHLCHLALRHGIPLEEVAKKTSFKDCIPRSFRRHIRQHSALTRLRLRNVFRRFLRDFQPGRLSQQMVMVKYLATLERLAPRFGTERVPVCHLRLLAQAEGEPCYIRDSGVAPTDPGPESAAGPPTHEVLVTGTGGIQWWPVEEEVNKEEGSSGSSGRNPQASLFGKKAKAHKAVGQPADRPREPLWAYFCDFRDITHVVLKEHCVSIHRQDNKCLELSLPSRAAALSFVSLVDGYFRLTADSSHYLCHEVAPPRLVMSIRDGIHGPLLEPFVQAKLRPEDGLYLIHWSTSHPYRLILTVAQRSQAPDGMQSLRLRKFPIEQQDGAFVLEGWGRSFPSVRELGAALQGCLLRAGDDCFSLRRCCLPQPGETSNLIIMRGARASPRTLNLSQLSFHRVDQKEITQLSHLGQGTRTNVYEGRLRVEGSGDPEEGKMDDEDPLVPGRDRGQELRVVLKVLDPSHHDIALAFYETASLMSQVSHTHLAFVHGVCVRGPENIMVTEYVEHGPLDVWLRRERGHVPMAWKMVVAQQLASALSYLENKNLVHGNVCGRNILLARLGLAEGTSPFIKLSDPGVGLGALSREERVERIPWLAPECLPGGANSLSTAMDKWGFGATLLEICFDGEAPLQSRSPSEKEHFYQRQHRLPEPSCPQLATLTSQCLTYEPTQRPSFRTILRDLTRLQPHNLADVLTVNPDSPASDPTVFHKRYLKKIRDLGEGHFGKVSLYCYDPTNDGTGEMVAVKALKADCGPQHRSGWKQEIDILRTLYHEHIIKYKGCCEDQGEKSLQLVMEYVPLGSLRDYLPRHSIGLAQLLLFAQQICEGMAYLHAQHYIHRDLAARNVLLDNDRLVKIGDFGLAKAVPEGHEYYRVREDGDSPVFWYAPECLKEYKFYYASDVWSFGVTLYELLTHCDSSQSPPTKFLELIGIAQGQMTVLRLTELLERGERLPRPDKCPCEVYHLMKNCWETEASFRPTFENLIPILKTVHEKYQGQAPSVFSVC

Molecular target: TYK2 (Homo sapiens, UniProt P29597)
Assay: TYK2 MSD degradation in OCI-LY10 cells
[1] = OCI-LY10 cells, 4 to 24 hours incubation
[2] = read-out: TYK2 MSD OCI-LY10 Rel-DC50, OCI-LY10 cells, 4 to 24 hours incubation
[3] = TYK2 degradation in OCI-LY10 cells, 4 to 24 hours incubation
[4] = read-out: TYK2 MSD OCI-LY10 Rel-DC50, TYK2 degradation in OCI-LY10 cells, 4 to 24 hours incubation
[5] = OCI-LY10 cells, incubated 4 to 24 hours
[6] = read-out: TYK2 MSD OCI-LY10 Rel-DC50, OCI-LY10 cells, incubated 4 to 24 hours

SMILES | TYK2 MSD OCI-LY10 Dmax % [3] | DC50 [4] | also measured
CNc1cc(N2CCc3c(-c4ccc(CN5CC6(CCN(C(=O)c7ccc(Cl)c(N8CCC(=O)NC8=O)c7)CC6(F)F)C5)cn4)cccc32)nn2c(C(=O)N[C@H]3C[C@H](F)C3)cnc12 |  |  | TYK2 MSD OCI-LY10 Dmax % [1]: B (B (90 to >75%)); DC50 [2]: < 1 nM
CO[C@@]1(c2cc(-c3ccc(CN4CCC5(CN(C(=O)c6ccc(Cl)c(N7CCC(=O)NC7=O)c6)C5)C(F)(F)C4)cn3)cc(-c3cn(C)c4cnc(NC(C)=O)cc34)n2)CCOC1 | B (B (90 to >75%)) | < 1 nM | 
CNc1cc(N2CCc3c(C#CCN4CCN(C5CCN(C(=O)c6ccc(Cl)c(N7CCC(=O)NC7=O)c6)CC5)CC4)cccc32)nn2c(C(=O)N[C@@H]3C[C@@H]3F)cnc12 |  |  | TYK2 MSD OCI-LY10 Dmax % [1]: B (B (90 to >75%)); DC50 [2]: < 1 nM
COC1(c2cc(C)cc(-c3cn(CC4CCN(CC5CCN(c6ccc(C(=O)NC7CCC(=O)NC7=O)c(F)c6)CC5)CC4)c4cnc(NC(C)=O)cc34)n2)CCOC1 (stereo not drawn) | D (D (<50%)) | > 100 nM | 
CNc1cc(N2CCc3c(-c4ccc(N5CCC6(CC5)CN(C(=O)c5ccc(N7CCC(=O)NC7=O)c(Cl)c5)C6)cn4)cccc32)nn2c(C(=O)N[C@@H]3C[C@@H]3F)cnc12 |  |  | TYK2 MSD OCI-LY10 Dmax % [1]: D (D (<50%)); DC50 [2]: < 10 nM
CNc1cc(N2CCc3c(-c4ncc(CN5CC6(CCN(C(=O)c7cc(C)c(Cl)c(N8CCC(=O)NC8=O)c7)CC6(F)F)C5)cc4F)cc(F)cc32)nn2c(C(=O)N[C@@H]3CC[C@H]3OC)cnc12 | A (A (>90%)) | < 1 nM | 
CO[C@@]1(c2cc(C)cc(-c3cn(C4CCN(CC5CCN(Cc6ccc(Cl)c(C7CCC(=O)NC7=O)c6)CC5)CC4)c4cnc(NC(C)=O)cc34)n2)CCOC1 (stereo partly drawn) | D (D (<50%)) | > 100 nM | 
CNc1cc(N2CCc3c(CN4CC[C@@H](N5CCC6(CCN(C(=O)c7cc(C)c(Cl)c(N8CCC(=O)NC8=O)c7)CC6)CC5)C(F)(F)C4)cccc32)nn2c(C(=O)N[C@@H]3CC[C@H]3OC)cnc12 | A (A (>90%)) | < 1 nM | 
CNc1cc(N2CC3(CCN(CCC4CCN(c5ccc6c(c5)n(C)c(=O)n6C5CCC(=O)NC5=O)CC4)CC3)c3ccccc32)nn2c(C(=O)NC3CC3)cnc12 (stereo not drawn) | D (D (<50%)) | > 100 nM | 
CNc1cc(N2CCc3c(CN4CCC(N5CCC6(CC5)CN(C(=O)c5cc(C)c(Cl)c(N7CCC(=O)NC7=O)c5)C6)C(F)(F)C4)cccc32)nn2c(C(=O)N[C@@H]3CC[C@H]3OC)cnc12 (stereo partly drawn) | A (A (>90%)) | < 1 nM | 
CO[C@@]1(c2cc(C)cc(-c3cn(C4CCN(CC5CCN(c6ccc(C7CCC(=O)NC7=O)c(Cl)c6)CC5)CC4)c4cnc(NC(C)=O)cc34)n2)CCOC1 (stereo partly drawn) | B (B (90 to >75%)) | < 10 nM | 
CNc1cc(N2CCc3c(CN4CCC5(CCN(CC6CCN(C(=O)c7cc(C)c(Cl)c(N8CCC(=O)NC8=O)c7)CC6)CC5)C(F)(F)C4)cccc32)nn2c(C(=O)N[C@@H]3CC[C@H]3OC)cnc12 | A (A (>90%)) | < 1 nM | 
CNc1cc(N2CCc3c(CN4CCC5(CCN(CC6CCN(C(=O)c7cc(N8CCC(=O)NC8=O)c(Cl)c(C)n7)CC6)CC5)C(F)(F)C4)cccc32)nn2c(C(=O)N[C@@H]3CC[C@H]3OC)cnc12 | B (B (90 to >75%)) | < 1 nM | 
CNc1cc(N2CCc3c(-c4ccc(CN5CCC(N6CCC(N(C)c7ccc(Cl)c(N8CCC(=O)NC8=O)c7)CC6)CC5)cn4)cccc32)nn2c(C(=O)N[C@@H]3CC[C@H]3OC)cnc12 | A (A (>90%)) | < 1 nM | 
CNc1cc(N2CCc3c(N4CCO[C@@H](CN5CCN(c6ccc7c(c6)n(C)c(=O)n7C6CCC(=O)NC6=O)CC5)C4)cccc32)nn2c(C(=O)NC3CC3)cnc12 (stereo partly drawn) | C (C (75 to 50%)) | < 1 nM | 
CNc1cc(N2CCc3c(-c4cc(CN5CCN(Cc6ccc(C7CCC(=O)NC7=O)c(Cl)c6)CC5)ccn4)cccc32)nn2c(C(=O)N[C@@H]3C[C@@H]3F)cnc12 (stereo partly drawn) |  |  | TYK2 MSD OCI-LY10 Dmax % [1]: D (D (<50%)); DC50 [2]: > 100 nM
CNc1cc(N2CCc3c(-c4ccc(CN5CC6(CCN(C(=O)c7cc(N8CCC(=O)NC8=O)c(C)cn7)CC6(F)F)C5)cn4)cccc32)nn2c(C(=O)N[C@@H]3CC[C@H]3OC)cnc12 | A (A (>90%)) | < 1 nM | 
CNc1cc(N2CCc3c(CN4CCC5(CCN(CC6CCN(C(=O)c7cc(Cl)c(C)c(N8CCC(=O)NC8=O)c7)CC6)CC5)C(F)(F)C4)cccc32)nn2c(C(=O)N[C@@H]3CC[C@H]3OC)cnc12 | A (A (>90%)) | < 1 nM | 

SMILES | TYK2 MSD OCI-LY10 Dmax % [3] | DC50 [4] | also measured
CNc1cc(N2CCc3c(CN4CCC5(CN(C6CCN(C(=O)c7cc(C)c(Cl)c(N8CCC(=O)NC8=O)c7)CC6)C5)C(F)(F)C4)cccc32)nn2c(C(=O)N[C@@H]3CC[C@H]3OC)cnc12 |  |  | TYK2 MSD OCI-LY10 Dmax % [5]: B (B (90 to >75%)); DC50 [6]: < 1 nM
CNc1cc(N2CCc3c(-c4ccc(CN5CCC6(CCN(C(=O)c7cc(N8CCC(=O)NC8=O)c(C)cc7Cl)CC6)C(F)(F)C5)cn4)cccc32)nn2c(C(=O)N[C@@H]3C[C@@H]3F)cnc12 |  |  | TYK2 MSD OCI-LY10 Dmax % [1]: B (B (90 to >75%)); DC50 [2]: < 10 nM
CNc1cc(N2CCc3c(CN4CCC(N5CC6(CCN(c7ccc8c(c7)n(C)c(=O)n8C7CCC(=O)NC7=O)CC6)C5)C(F)(F)C4)cccc32)nn2c(C(=O)NC3CC3)cnc12 (stereo not drawn) | B (B (90 to >75%)) | < 1 nM | 
CNc1cc(N2CCc3c(-c4ccc(CN5CC6(CCN(C(=O)c7ccc(Cl)c(N8CCC(=O)NC8=O)c7)CC6(F)F)C5)cn4)cc(Cl)cc32)nn2c(C(=O)N[C@@H]3C[C@@H]3F)cnc12 | A (A (>90%)) | < 1 nM | 
CNc1cc(N2CCc3c(-c4ccc(CN5CC6(CCN(C(=O)c7ccc(Cl)c(N8CCC(=O)NC8=O)c7)CC6(F)F)C5)cn4)cccc32)nn2c(C(=O)N[C@@H]3CC[C@H]3OC)cnc12 |  |  | TYK2 MSD OCI-LY10 Dmax % [1]: A (A (>90%)); DC50 [2]: < 1 nM
CNc1cc(N2CCc3c(-c4ccc(OC5CC6(CCN(Cc7ccc(Cl)c(N8CCC(=O)NC8=O)c7)CC6)C5)cn4)cccc32)nn2c(C(=O)N[C@@H]3C[C@@H]3F)cnc12 | D (D (<50%)) | > 100 nM | 
CNc1cc(N2CCc3c(-c4ccc(N5CC6(CCN(C(=O)c7ccc(C8CCC(=O)NC8=O)c(Cl)c7)CC6)C5)cn4)cccc32)nn2c(C(=O)N[C@@H]3C[C@@H]3F)cnc12 (stereo partly drawn) |  |  | TYK2 MSD OCI-LY10 Dmax % [1]: B (B (90 to >75%)); DC50 [2]: < 10 nM
CO[C@@]1(c2cc(C)cc(-c3cn(C4CCN(CC5CCN(c6ccc(Cl)c(C7CCC(=O)NC7=O)c6)CC5)CC4)c4cnc(NC(C)=O)cc34)n2)CCOC1 (stereo partly drawn) | D (D (<50%)) | > 100 nM | 
CNc1cc(N2CCc3c(-c4ncc(CN5CCC6(CCN(C(=O)c7cc(C)c(Cl)c(N8CCC(=O)NC8=O)c7)CC6)C(F)(F)C5)cn4)cccc32)nn2c(C(=O)N[C@@H]3CC[C@H]3OC)cnc12 | A (A (>90%)) | < 1 nM | 
CNc1cc(N2CCc3c(-c4ccc(CN5CC6(CCN(C(=O)c7cc(C)c(Cl)c(N8CCC(=O)NC8=O)c7)CC6(F)F)C5)cn4)cccc32)nn2c(C(=O)N[C@@H]3CC[C@H]3OC)cnc12 | A (A (>90%)) | < 1 nM | 
CNc1cc(N2CCc3c(-c4cnc(CN5CCC6(CCN(C(=O)c7cc(C)c(Cl)c(N8CCC(=O)NC8=O)c7)CC6)C(F)(F)C5)cn4)cccc32)nn2c(C(=O)N[C@@H]3CC[C@H]3OC)cnc12 | B (B (90 to >75%)) | < 10 nM | 
CNc1cc(N2CCc3c(N4CCC(CN5CC6(CCN(C(=O)c7cc(N8CCC(=O)NC8=O)c(Cl)c(C)n7)CC6(F)F)C5)CC4)cccc32)nn2c(C(=O)N[C@@H]3CC[C@H]3OC)cnc12 | B (B (90 to >75%)) | < 1 nM | 
CCNC(=O)c1nnc(Nc2ccc(CN(C)C3CCN(c4cccc5c4n(C)c(=O)n5C4CCC(=O)NC4=O)CC3(F)F)cn2)cc1Nc1cccc(F)c1OC (stereo not drawn) | D (D (<50%)) | > 100 nM | 
CCO[C@@H]1CC[C@H]1NC(=O)c1cnc2c(NC)cc(N3CCc4c(-c5ncc(CN6CC7(CCN(C(=O)c8cc(C)c(Cl)c(N9CCC(=O)NC9=O)c8)CC7(F)F)C6)cc5F)cccc43)nn12 | B (B (90 to >75%)) | < 1 nM | 
CNc1cc(N2CCc3c(CN4CC[C@H](N5CCC6(CCN(C(=O)c7ccc(Cl)c(N8CCC(=O)NC8=O)c7)CC6)CC5)C(F)(F)C4)cc(F)cc32)nn2c(C(=O)N[C@@H]3CC[C@H]3OC)cnc12 | A (A (>90%)) | < 1 nM | 
CNc1cc(N2CCc3c(CN4CC5(CCN(C6CCN(C(=O)c7cc(C)c(Cl)c(N8CCC(=O)NC8=O)c7)CC6)CC5(F)F)C4)cccc32)nn2c(C(=O)N[C@@H]3CC[C@H]3OC)cnc12 |  |  | TYK2 MSD OCI-LY10 Dmax % [5]: B (B (90 to >75%)); DC50 [6]: < 1 nM
CO[C@@]1(c2cc(C)cc(-c3cn(C4CCN(CCC5CCN(c6ccc(C7CCC(=O)NC7=O)c(Cl)c6)CC5)CC4)c4cnc(NC(C)=O)cc34)n2)CCOC1 (stereo partly drawn) | D (D (<50%)) | 10 to 100 nM | 
CNc1cc(N2CCc3c(N4CCN(CC5CC6(CCN(Cc7ccc(C8CCC(=O)NC8=O)c(Cl)c7)CC6)C5)CC4)cccc32)nn2c(C(=O)N[C@@H]3C[C@@H]3F)cnc12 (stereo partly drawn) |  |  | TYK2 MSD OCI-LY10 Dmax % [1]: D (D (<50%)); DC50 [2]: > 100 nM
